# Assay results: PubChem BioAssay (EPA / NIEHS)
# Sequences of proteins named here, by UniProt entry; tags and fusion partners are left off.
# UniProt P05979, whole entry: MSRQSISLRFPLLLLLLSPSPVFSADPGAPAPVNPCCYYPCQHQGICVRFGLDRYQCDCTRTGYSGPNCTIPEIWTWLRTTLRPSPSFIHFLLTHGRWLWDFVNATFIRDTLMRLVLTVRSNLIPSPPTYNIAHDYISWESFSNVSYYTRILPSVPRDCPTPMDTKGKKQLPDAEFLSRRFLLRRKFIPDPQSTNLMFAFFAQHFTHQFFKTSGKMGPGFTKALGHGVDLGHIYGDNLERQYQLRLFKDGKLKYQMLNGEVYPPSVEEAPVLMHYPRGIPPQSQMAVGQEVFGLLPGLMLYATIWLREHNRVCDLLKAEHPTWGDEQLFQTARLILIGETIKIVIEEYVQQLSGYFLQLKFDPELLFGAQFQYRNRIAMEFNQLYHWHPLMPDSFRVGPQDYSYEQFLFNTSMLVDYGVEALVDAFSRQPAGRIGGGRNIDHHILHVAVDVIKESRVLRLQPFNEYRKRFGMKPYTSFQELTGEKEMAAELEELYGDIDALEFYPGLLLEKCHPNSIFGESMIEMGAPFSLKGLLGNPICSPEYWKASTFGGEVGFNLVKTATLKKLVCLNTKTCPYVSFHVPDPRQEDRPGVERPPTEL
# UniProt P42336, whole entry: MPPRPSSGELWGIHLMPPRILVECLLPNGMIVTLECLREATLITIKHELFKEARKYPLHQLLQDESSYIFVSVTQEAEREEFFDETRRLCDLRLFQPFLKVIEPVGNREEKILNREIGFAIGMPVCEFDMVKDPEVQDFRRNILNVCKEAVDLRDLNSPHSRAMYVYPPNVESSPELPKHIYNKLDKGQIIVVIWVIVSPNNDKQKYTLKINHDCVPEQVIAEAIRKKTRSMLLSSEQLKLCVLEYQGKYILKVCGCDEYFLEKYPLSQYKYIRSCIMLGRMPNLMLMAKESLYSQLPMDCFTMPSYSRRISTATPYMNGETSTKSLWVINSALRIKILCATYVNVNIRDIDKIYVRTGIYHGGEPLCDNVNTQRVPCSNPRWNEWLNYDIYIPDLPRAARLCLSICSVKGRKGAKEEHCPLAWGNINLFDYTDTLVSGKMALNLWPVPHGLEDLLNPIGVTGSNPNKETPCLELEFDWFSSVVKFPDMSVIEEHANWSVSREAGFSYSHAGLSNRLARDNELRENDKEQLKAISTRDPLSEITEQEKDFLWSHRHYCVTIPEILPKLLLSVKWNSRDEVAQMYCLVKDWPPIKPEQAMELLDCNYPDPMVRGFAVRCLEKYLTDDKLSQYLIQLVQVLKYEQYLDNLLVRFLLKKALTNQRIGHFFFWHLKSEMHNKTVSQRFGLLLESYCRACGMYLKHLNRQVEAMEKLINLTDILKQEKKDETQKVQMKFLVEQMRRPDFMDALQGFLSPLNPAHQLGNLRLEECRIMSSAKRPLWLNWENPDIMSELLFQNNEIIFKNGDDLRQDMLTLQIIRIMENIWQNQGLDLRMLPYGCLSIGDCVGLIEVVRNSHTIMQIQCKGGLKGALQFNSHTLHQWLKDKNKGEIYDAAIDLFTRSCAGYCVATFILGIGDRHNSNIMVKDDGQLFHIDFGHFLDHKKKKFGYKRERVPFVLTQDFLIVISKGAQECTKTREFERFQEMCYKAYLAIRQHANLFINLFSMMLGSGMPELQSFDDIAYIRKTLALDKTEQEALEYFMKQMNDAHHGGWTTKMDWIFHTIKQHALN
# UniProt P28482, whole entry: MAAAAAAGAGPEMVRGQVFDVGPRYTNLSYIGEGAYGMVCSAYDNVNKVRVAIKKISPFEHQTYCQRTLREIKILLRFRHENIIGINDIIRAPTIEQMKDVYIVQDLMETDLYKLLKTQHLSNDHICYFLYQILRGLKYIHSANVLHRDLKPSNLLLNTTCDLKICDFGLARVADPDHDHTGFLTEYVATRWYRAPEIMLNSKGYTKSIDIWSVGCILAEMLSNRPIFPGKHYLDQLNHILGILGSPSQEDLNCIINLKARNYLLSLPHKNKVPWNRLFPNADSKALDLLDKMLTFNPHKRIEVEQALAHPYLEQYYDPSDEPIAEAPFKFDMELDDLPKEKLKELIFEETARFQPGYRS
# UniProt P03956, whole entry: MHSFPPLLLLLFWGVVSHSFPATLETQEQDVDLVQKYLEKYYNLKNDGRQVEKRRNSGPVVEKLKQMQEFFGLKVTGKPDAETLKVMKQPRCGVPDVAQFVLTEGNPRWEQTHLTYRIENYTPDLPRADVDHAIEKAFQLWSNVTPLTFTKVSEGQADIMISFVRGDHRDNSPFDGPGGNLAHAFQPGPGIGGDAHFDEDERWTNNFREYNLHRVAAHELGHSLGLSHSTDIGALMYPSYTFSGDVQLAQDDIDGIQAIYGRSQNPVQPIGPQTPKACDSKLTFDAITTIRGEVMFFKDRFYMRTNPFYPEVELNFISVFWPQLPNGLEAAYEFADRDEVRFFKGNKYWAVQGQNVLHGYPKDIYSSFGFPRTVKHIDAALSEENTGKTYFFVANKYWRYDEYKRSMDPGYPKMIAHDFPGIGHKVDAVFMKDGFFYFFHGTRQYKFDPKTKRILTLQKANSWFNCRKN
# UniProt P67775, whole entry: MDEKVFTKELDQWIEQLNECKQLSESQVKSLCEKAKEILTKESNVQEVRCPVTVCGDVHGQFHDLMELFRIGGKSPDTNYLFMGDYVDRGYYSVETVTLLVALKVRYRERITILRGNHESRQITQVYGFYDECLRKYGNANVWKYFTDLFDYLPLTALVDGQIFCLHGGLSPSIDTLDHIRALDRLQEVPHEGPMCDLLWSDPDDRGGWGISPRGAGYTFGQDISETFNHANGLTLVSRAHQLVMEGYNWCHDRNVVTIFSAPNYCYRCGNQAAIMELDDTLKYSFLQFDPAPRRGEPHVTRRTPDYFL
# UniProt P19643, whole entry: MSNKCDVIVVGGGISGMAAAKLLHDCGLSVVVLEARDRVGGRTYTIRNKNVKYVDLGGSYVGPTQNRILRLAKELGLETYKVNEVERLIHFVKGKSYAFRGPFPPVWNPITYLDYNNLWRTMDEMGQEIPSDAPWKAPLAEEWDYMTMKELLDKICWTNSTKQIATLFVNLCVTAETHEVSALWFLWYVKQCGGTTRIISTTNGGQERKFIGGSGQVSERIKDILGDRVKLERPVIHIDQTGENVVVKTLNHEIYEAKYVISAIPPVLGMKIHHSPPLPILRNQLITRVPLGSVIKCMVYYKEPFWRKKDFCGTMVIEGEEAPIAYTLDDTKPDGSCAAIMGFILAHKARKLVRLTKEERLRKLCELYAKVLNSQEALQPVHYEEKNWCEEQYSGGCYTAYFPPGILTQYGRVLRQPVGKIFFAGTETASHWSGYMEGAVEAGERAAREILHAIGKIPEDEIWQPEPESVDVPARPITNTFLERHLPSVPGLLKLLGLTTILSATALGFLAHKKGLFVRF
# UniProt P08254, whole entry: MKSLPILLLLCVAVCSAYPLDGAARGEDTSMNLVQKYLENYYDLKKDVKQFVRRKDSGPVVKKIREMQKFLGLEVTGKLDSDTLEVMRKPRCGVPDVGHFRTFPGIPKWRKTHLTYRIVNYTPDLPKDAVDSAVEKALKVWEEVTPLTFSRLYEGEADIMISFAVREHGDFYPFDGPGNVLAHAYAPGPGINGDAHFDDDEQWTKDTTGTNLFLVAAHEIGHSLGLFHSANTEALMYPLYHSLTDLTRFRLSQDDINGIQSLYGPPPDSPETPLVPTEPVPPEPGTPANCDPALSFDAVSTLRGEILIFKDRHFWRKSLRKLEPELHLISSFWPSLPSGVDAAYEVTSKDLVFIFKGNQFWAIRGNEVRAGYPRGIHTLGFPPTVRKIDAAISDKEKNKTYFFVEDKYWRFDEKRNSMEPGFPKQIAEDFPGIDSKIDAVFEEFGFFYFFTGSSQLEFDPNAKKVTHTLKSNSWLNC
# UniProt Q02763, whole entry: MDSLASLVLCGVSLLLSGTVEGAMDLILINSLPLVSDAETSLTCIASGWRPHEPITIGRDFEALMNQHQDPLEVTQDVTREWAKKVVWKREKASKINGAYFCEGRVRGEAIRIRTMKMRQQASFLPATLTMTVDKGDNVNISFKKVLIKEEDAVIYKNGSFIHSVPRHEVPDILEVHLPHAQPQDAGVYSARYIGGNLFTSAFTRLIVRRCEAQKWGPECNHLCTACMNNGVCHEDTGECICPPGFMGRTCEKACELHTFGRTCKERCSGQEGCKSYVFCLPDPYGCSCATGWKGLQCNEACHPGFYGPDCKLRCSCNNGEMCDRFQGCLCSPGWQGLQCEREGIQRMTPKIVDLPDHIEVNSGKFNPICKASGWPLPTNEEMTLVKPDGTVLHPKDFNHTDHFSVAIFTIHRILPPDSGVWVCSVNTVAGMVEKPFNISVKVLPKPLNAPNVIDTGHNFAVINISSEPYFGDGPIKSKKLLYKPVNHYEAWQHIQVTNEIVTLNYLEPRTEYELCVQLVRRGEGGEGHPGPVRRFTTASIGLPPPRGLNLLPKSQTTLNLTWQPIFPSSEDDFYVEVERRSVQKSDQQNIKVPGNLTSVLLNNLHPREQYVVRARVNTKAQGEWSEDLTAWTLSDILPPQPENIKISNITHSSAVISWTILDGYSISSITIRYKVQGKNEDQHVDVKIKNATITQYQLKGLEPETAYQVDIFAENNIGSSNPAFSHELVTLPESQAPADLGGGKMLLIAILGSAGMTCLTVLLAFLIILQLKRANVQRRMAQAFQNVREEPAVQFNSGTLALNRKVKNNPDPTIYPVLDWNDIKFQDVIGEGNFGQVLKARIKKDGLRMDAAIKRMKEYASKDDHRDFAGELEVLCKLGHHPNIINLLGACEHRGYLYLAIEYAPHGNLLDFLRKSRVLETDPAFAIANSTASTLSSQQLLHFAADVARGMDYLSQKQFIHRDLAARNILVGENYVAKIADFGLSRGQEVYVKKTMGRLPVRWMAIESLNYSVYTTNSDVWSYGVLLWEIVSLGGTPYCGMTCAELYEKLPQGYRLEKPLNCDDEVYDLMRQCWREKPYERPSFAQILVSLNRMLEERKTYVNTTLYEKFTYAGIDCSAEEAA
# UniProt P27361, whole entry: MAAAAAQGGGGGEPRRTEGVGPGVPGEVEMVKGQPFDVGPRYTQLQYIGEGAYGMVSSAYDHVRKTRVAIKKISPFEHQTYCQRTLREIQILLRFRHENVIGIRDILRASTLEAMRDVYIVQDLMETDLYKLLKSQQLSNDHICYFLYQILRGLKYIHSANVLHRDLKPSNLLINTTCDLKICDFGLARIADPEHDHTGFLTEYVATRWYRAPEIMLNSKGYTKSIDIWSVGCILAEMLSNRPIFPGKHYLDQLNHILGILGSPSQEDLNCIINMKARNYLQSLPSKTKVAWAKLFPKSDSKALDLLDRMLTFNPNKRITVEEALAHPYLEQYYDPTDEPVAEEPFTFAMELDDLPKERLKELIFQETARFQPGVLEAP
# UniProt O96013, whole entry: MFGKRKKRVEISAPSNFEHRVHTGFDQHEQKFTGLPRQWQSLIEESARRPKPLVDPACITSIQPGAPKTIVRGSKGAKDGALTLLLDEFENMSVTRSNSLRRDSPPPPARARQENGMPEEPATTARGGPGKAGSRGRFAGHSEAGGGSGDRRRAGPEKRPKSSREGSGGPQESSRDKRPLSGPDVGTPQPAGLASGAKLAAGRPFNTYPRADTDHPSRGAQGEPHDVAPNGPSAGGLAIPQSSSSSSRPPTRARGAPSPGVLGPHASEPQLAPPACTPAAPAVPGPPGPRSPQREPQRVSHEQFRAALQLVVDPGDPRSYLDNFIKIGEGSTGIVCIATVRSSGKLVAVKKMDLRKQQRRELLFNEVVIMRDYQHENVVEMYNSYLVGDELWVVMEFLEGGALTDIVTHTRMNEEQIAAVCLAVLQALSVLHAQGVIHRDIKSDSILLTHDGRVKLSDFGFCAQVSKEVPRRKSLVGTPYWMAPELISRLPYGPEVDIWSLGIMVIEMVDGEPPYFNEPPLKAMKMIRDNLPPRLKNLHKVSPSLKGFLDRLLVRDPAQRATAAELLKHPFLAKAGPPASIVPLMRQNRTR
# UniProt P12931, whole entry: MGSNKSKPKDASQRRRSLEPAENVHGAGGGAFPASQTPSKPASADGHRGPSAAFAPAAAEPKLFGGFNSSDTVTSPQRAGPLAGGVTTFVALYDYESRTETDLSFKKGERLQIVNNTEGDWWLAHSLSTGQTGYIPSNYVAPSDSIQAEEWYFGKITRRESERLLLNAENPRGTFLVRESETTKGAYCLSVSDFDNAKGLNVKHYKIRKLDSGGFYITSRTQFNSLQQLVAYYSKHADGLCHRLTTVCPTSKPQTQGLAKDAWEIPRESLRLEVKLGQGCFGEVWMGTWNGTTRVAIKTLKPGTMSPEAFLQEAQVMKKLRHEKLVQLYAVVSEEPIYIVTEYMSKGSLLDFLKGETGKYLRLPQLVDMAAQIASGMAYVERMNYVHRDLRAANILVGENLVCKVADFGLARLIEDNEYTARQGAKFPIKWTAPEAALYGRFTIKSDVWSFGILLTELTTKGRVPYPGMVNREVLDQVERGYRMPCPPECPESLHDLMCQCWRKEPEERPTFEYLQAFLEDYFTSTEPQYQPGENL
# The list shows a part of the results, in another mix than the full data. Records with an inconclusive call do not appear. Activity calls are given as the source filed them. Rule for the calls: active = hit-call score of the fitted dose curve at least 0.9, where 1 is the maximum; inconclusive = response in the unintended direction; inactive = score below 0.9.
# Assays:
# [1] = target: sheep Cyclooxygenase-1 (Cox1), PTGS1 (gene 443551) (UniProt P05979); assay: NVS_ENZ_oCOX1: NovaScreen (NVS) Enzymatic Assay for sheep Cyclooxygenase-1 (Cox1) (AID 2283239);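 note: actives reduce cyclooxygenase activity so potencies are for inhibitors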
# In short: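 Absorbance read-out of cyclooxygenase activity in a cell-free preparation from sheep seminal vesicles, taken 0.66 hour after dosing. Initial testing was in duplicate at 25 uM, and confirmatory testing was run in concentration series.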
# [2] = tested on: rat Monoamine Oxidase, MAO-A, Central (MAOAC), gene 29253; assay: NVS_ENZ_rMAOAC: NovaScreen (NVS) Enzymatic Assay for rat Monoamine Oxidase, MAO-A, Central (MAOAC) (AID 2283243);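 note: potency refers to inhibition seen as signal drop below DMSO baseline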
# In short: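 Rat brain tissue extract used as enzyme source in a cell-free radiometric assay, read by scintillation counting 1.5 hours after dosing. Loss of signal relative to DMSO baseline scored; primary screen at 25 uM in duplicate, actives followed up in concentration series.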
# [3] = target: human Phosphodiesterase 10 (PDE10), PDE10A (gene 10846) (UniProt Q9Y233); assay: NVS_ENZ_hPDE10: NovaScreen (NVS) Enzymatic Assay for human Phosphodiesterase 10 (PDE10) (AID 2283195)
# In short: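 Recombinant human PDE10 with fluorescent substrate, 1 h, product separated by electrophoretic mobility shift. Loss of enzyme activity fitted against DMSO; initial screen 25 uM in duplicate, actives run to 50 uM maximum.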
# [4] = target: human Phosphoinositide 3-kinase alpha (PI3Ka), PIK3CA (gene 5290) (UniProt P42336); assay: NVS_ENZ_hPI3Ka: NovaScreen (NVS) Enzymatic Assay for human Phosphoinositide 3-kinase alpha (PI3Ka) (AID 2283196)
# In short: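 Fluorescence/mobility-shift readout of substrate conversion by recombinant enzyme, 1 h post-dosing. Primary screen in duplicate at 25 uM; actives (e.g. ≥30% inhibition) retested in singleton concentration-response, top concentration 50 uM.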
# [5] = target: human Mitogen-Activated Protein Kinase 1 (MAPK 1), MAPK1 (gene 5594) (UniProt P28482); assay: NVS_ENZ_hMAPK1: NovaScreen (NVS) Enzymatic Assay for human Mitogen-Activated Protein Kinase 1 (MAPK 1) (AID 2283175)
# In short: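 Cell-free recombinant human MAPK1 enzymatic assay, fluorescence/electrophoretic mobility shift read at 1 h; loss of signal vs DMSO. Primary screen in duplicate at 25 uM; actives (e.g. ≥30% inhibition) run as concentration-response up to 50 uM.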
# [6] = target: human Matrix Metalloproteinase-1 (MMP1), MMP1 (gene 4312) (UniProt P03956); assay: NVS_ENZ_hMMP1: NovaScreen (NVS) Enzymatic Assay for human Matrix Metalloproteinase-1 (MMP1) (AID 2283181)
# In short: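 Human MMP1 enzyme activity measured by fluorescence 1 h after dosing, cell-free, with a specific substrate. Screened in duplicate at 25 uM; hits (e.g. 30% inhibition) run in concentration-response up to 50 uM; loss of signal versus DMSO.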
# [7] = target: human Phosphodiesterase 5 (PDE5), PDE5A (gene 8654) (UniProt O76074); assay: NVS_ENZ_hPDE5: NovaScreen (NVS) Enzymatic Assay for human Phosphodiesterase 5 (PDE5) (AID 2283194)
# In short: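 Recombinant human PDE5 with specific substrate, read 1 h after dosing by fluorescence with electrophoretic mobility-shift separation of substrate and product. Initial single-concentration duplicate screen at 25 uM, actives followed in concentration series; loss of activity versus DMSO.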
# [8] = target: human Protein Phosphatase, Mg2+/Mn2+ Dependent 1A (PPM1A), PPM1A (gene 5494) (UniProt P35813); assay: NVS_ENZ_hPPM1A: NovaScreen (NVS) Enzymatic Assay for human Protein Phosphatase, Mg2+/Mn2+ Dependent 1A (PPM1A) (AID 2283198)
# In short: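 Cell-free recombinant PPM1A phosphatase assay with fluorescent substrate, read 1 h after dosing by electrophoretic mobility shift. Chemicals screened in duplicate at 25 uM, then in concentration-response up to 50 uM; loss of activity versus DMSO.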
# PPP2CA (gene 5515) = PPP2CA (gene 5515) (UniProt P67775); assay: NVS_ENZ_hPPP2CA: NovaScreen (NVS) Enzymatic Assay for human Protein Phosphatase 2 Aatalytic subunit Alpha (PPP2CA) (AID 2283199)
# In short: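 Recombinant human PPP2CA with fluorescent substrate; product separated from substrate by electrophoretic mobility shift, read 1.33 h after dosing. Duplicate single-point at 25 uM, then singleton concentration-response up to 50 uM; loss of signal versus DMSO.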
# [9] = target: rat Constitutive Nitric Oxide Synthase (CNOS), Nos1 (gene 24598) (UniProt P29476); assay: NVS_ENZ_rCNOS: NovaScreen (NVS) Enzymatic Assay for rat Constitutive Nitric Oxide Synthase (CNOS) (AID 2283236)
# In short: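 Enzyme activity in rat brain membrane preparation, read 1 h after dosing by filter-based radiometric scintillation counting. Primary screen in duplicate at 25 uM; actives (e.g., ≥30% inhibition) then run in concentration-response up to 50 uM.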
# [10] = tested on: rat Monoamine Oxidase, MAO-A, Peripheral (MAOAP), gene 29253; assay: NVS_ENZ_rMAOAP: NovaScreen (NVS) Enzymatic Assay for rat Monoamine Oxidase, MAO-A, Peripheral (MAOAP) (AID 2283237)
# In short: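 Rat liver mitochondrial membranes served as the MAO-A source, with enzyme activity measured by radiometric scintillation counting 1.17 hours after dosing. Loss of signal was fitted against DMSO; primary screen used 25 uM in duplicate, follow-up used concentration series.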
# [11] = target: rat Monoamine Oxidase, MAO-B, Central (MAOBC), Maob (gene 25750) (UniProt P19643); assay: NVS_ENZ_rMAOBC: NovaScreen (NVS) Enzymatic Assay for rat Monoamine Oxidase, MAO-B, Central (MAOBC) (AID 2283238)
# In short: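 MAO-B activity in rat brain tissue preparation, cell-free, measured radiometrically by scintillation counting 1.17 h after dosing. Screened in duplicate at 25 uM; actives then in concentration-response up to 50 uM. Loss of signal versus DMSO scored.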
# [12] = target: rat Monoamine Oxidase, MAO-B, Peripheral (MAOBP), Maob (gene 25750) (UniProt P19643); assay: NVS_ENZ_rMAOBP: NovaScreen (NVS) Enzymatic Assay for rat Monoamine Oxidase, MAO-B, Peripheral (MAOBP) (AID 2283242)
# [13] = target: human Matrix Metalloproteinase-3 (MMP3), MMP3 (gene 4314) (UniProt P08254); assay: NVS_ENZ_hMMP3: NovaScreen (NVS) Enzymatic Assay for human Matrix Metalloproteinase-3 (MMP3) (AID 2283185)
# In short: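 Cell-free recombinant human MMP3 activity, fluorescence intensity read 1 h after dosing. Primary screen duplicate at 25 uM, actives retested in concentration series; loss of signal vs DMSO baseline.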
# [14] = target: human Protein Tyrosine Phosphatase Receptor Type C (PTPRC), PTPRC (gene 5788) (UniProt P08575); assay: NVS_ENZ_hPTPRC: NovaScreen (NVS) Enzymatic Assay for human Protein Tyrosine Phosphatase Receptor Type C (PTPRC) (AID 2283212)
# In short: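 Yeast-extracted human PTPRC used in a cell-free colorimetric enzyme activity read-out, 1 h after dosing. Primary screen in duplicate at 25 uM; actives rerun in concentration-response up to 50 uM, DMSO as baseline.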
# [15] = target: human Tyrosine Protein Kinase Receptor Tie-2 (Tie2), TEK (gene 7010) (UniProt Q02763); assay: NVS_ENZ_hTie2: NovaScreen (NVS) Enzymatic Assay for human Tyrosine Protein Kinase Receptor Tie-2 (Tie2) (AID 2283225)
# In short: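 Recombinant human Tie2 kinase activity was read cell-free by fluorescence with electrophoretic mobility shift, 1 hour after dosing. The screen used 25 uM in duplicate, then concentration-response up to 50 uM. Signal loss was scored against DMSO.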
# [16] = target: human Phosphatase and Tensin Homolog (PTEN), PTEN (gene 5728) (UniProt P60484); assay: NVS_ENZ_hPTEN: NovaScreen (NVS) Enzymatic Assay for human Phosphatase and Tensin Homolog (PTEN) (AID 2283203)
# In short: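 Cell-free recombinant human PTEN with fluorescent substrate; product separated by electrophoretic mobility shift and read by fluorescence 1 h after dosing. Primary screen in duplicate at 25 uM, actives followed in concentration series versus DMSO.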
# [17] = target: Mitogen-activated protein kinase 3 (Homo sapiens) (UniProt P27361); assay: NVS_ENZ_hMAPK3: NovaScreen (NVS) Enzymatic Assay for human Mitogen-Activated Protein Kinase 3 (MAPK 3) (AID 2283177)
# In short: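 Cell-free enzymatic assay with recombinant protein and specific substrate; fluorescence and electrophoretic mobility shift read-out 1 h after dosing. Primary screen duplicate at 25 uM; actives then run in concentration-response up to 50 uM, loss of signal versus DMSO.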
# [18] = target: human p21 Activated Kinase 4 (PAK4), PAK4 (gene 10298) (UniProt O96013); assay: NVS_ENZ_hPAK4: NovaScreen (NVS) Enzymatic Assay for human p21 Activated Kinase 4 (PAK4) (AID 2283189)
# In short: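 Cell-free recombinant human PAK4 activity assay; fluorescent substrate and product separated by electrophoretic mobility shift, read 1 h after dosing. Initially tested in duplicate at 25 uM, relative to DMSO baseline.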
# [19] = target: human SRC Proto-Oncogene, Non-receptor Tyrosine Kinase (SRC), SRC (gene 6714) (UniProt P12931); assay: NVS_ENZ_hSRC: NovaScreen (NVS) Enzymatic Assay for human SRC Proto-Oncogene, Non-receptor Tyrosine Kinase (SRC) (AID 2283223)
# In short: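 Cell-free kinase activity assay with fluorescent substrate, product separated by electrophoretic mobility shift, read 1 h after dosing. Duplicate single point at 25 uM, then concentration-response up to 50 uM; loss of signal versus DMSO.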
compound,measurement,setting,value
COc1ccc([N+](=O)[O-])cc1[N+](=O)[O-],outcome,[1],inactive
same,AC50,[2],active: 13.8 µM
Cc1ccc([N+](=O)[O-])c([N+](=O)[O-])c1,outcome,[3],inactive
same,AC50,[4],active: 25 µM
same,AC50,[2],active: 8.86 µM
CC(C)OP(C)(=O)OC(C)C,outcome,[5],inactive
O=[N+]([O-])c1cccc([N+](=O)[O-])c1,outcome,[6],inactive
same,outcome,[7],inactive
same,outcome,[8],inactive
same,outcome,PPP2CA (gene 5515),inactive
same,AC50,[9],active: 1.97 µM
same,AC50,[10],active: 11.5 µM
same,AC50,[11],active: 1.24 µM
same,outcome,[1],inactive
same,AC50,[12],active: 15.7 µM
same,AC50,[2],active: 5.05 µM
Cc1cccc([N+](=O)[O-])c1[N+](=O)[O-],outcome,[13],inactive
same,AC50,[14],active: 2.84 µM
same,outcome,[15],inactive
same,AC50,[10],active: 1.81 µM
same,AC50,[11],active: 9.77 µM
same,AC50,[2],active: 0.572 µM
Cc1c([N+](=O)[O-])cccc1[N+](=O)[O-],outcome,[6],inactive
same,outcome,[13],inactive
same,outcome,[14],inactive
same,outcome,[15],inactive
same,AC50,[10],active: 29.6 µM
same,AC50,[11],active: 11.6 µM
same,AC50,[2],active: 25 µM
COP(C)(=O)OC,outcome,[1],inactive
N#CBr,AC50,[16],active: 4.72 µM
Cc1ccc([N+](=O)[O-])cc1[N+](=O)[O-],outcome,[17],inactive
same,outcome,[18],inactive
same,outcome,[16],inactive
same,outcome,[19],inactive
same,outcome,[15],inactive
same,AC50,[10],active: 5.46 µM
same,outcome,[11],inactive
same,AC50,[12],active: 8.86 µM
same,AC50,[2],active: 4.95 µM
